Test results published in article PMC13278957.

Tested on: P37840
Test: SEC + ELISA; brain lysates (three PD Braak stage 5 or 6, three HC) fractionated by SEC by apparent molecular weight; ELISA on the fractions for the amount of αSyn; high molecular weight fractions 200 kDa to 5 MDa

With “α-synuclein (endogenous, human post-mortem brain)” the “percent of total α-synuclein that is aggregated (high molecular weight SEC fractions)” value was “approx. 0.5% of total”.
